Experiments:
[1] = tested on: NIH3T3/EGFR vIII cell-transplanted tumor; conditions: mouse, in vivo
[2] = tested on: NIH3T3/EGFRWT cell-transplanted tumor; conditions: in vivo
From the text: Note that, “*” denotes t<0.05.

COc1cc2ncnc(Nc3ccc(F)c(Cl)c3)c2cc1OCCCN1CCOCC1 [Gefitinib, reference compound]
tumor weight versus negative control group [1]: significantly different | mouse body weight (weight loss) [2]: weight loss was observed | tumor weight versus negative control group ([2]; mouse): significantly different

Source: patent US9969699B2, “Cancer cell growth inhibitor, anticancer agent, and method for screening same, as well as novel compound” (Microbial Chemistry Research Foundation, priority 2014, dated 2018)
